Here are results for two compounds from ChEMBL document CHEMBL1129668 (J Med Chem, 1996).

Sequences of proteins named here, by UniProt entry; tags and fusion partners are left off.
UniProt Q9WTR4, whole entry: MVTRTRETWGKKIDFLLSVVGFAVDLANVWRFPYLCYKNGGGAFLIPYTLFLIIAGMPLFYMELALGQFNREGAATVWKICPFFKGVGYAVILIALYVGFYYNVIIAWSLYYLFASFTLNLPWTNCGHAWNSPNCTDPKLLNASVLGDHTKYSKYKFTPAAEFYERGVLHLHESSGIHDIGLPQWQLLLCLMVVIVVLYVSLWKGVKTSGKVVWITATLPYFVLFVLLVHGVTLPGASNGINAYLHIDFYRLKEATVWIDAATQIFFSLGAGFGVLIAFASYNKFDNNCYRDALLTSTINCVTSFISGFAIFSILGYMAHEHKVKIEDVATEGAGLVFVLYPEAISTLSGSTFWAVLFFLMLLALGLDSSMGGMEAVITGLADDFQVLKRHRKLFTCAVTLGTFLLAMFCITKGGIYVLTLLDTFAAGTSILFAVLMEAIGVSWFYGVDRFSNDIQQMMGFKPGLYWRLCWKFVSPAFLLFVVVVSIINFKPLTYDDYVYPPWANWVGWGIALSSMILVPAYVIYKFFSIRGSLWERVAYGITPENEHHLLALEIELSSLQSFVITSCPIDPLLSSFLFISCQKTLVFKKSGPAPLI
UniProt P31652, whole entry: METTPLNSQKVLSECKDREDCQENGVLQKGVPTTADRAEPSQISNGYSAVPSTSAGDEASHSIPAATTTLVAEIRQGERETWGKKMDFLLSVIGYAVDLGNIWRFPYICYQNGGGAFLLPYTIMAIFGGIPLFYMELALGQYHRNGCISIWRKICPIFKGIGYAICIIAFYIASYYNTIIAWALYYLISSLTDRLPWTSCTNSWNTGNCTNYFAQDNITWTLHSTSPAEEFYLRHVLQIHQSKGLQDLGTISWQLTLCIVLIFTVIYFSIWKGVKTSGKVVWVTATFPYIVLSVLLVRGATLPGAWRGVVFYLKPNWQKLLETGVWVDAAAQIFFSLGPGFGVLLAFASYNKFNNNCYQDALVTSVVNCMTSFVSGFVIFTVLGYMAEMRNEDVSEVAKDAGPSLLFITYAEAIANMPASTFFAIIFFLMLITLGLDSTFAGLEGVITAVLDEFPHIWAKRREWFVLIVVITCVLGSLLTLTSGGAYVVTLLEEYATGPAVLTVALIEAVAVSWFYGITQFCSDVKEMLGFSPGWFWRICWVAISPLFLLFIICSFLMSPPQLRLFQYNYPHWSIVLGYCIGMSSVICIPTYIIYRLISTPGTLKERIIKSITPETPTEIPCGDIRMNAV

Bounds are passed on as bounds.

Experiment [1] deals with Norepinephrine transporter (Rattus norvegicus, UniProt Q9WTR4). In words: In vitro binding affinity towards Norepinephrine transporter rat cerebral cortical homogenates by [3H]nisoxetine displacement. The essentials:
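Crude membrane fraction of rat frontoparietal cerebral cortex in 50 mM Tris-HCl (pH 7.4) with Na+, K+ (5 mM). […] Typically six concentrations in duplicate; curves computer-fit for IC50, converted to Ki = IC50/(1 + [L]/K_d).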

In experiment [2] the target is Sodium-dependent serotonin transporter (Rattus norvegicus, UniProt P31652). In words: In vitro binding affinity towards serotonin transporter in rat cerebral cortical homogenates by [3H]paroxetine displacement.

`Fc1ccc(C(OCCN2CCN(CCCc3ccccc3)CC2)c2ccc(F)cc2)cc1` [VANOXERINE]: the inhibition constant Ki (in general, the dissociation constant of the complex between target and ligand, obtained from inhibition or displacement) in experiment [1] was more than 20 µM. Take `COC(=O)[C@H]1[C@@H](OC(=O)c2ccccc2)C[C@@H]2CC[C@H]1N2C` [COCAINE]: in experiment [2], the inhibition constant Ki is more than 10 µM.
